Test results from US9688856B2, “Biologically active silicic acid” (dated 2017).
Like-named read-outs stand apart in the source and are kept apart here.

The chains behind the UniProt entries cited, without tags or fusion partners. Where a name states a change or a piece, a line headed by the entry shows the natural chain unless it says otherwise.
UniProt P04191: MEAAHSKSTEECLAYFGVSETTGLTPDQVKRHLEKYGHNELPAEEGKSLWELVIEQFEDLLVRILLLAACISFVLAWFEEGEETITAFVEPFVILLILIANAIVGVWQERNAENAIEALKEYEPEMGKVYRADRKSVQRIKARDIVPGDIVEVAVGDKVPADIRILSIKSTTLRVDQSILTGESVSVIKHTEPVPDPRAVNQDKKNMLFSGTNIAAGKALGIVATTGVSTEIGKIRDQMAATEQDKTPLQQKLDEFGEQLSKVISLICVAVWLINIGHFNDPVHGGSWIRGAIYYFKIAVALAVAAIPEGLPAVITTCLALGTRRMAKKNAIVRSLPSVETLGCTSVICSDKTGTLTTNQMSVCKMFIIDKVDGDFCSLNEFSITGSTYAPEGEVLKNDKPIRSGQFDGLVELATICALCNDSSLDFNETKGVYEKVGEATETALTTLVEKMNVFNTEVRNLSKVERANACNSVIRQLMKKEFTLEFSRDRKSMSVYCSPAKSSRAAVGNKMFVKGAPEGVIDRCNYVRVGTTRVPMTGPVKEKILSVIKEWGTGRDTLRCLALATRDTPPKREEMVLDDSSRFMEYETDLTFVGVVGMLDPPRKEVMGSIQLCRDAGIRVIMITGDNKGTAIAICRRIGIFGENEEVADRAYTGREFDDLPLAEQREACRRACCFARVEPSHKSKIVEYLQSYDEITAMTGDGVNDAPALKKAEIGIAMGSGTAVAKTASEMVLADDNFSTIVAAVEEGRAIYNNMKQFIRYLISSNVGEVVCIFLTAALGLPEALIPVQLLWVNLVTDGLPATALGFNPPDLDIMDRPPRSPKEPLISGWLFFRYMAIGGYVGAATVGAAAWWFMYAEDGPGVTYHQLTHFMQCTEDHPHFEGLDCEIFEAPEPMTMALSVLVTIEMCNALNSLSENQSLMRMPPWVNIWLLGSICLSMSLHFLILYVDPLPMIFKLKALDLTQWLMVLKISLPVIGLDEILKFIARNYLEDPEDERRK

Assays:
[1] = molecular target: Ca-ATPase pump of the endoplasmic reticulum (SERCA) (Oryctolagus cuniculus, UniProt P04191); conditions: prior art; cited from earlier work
[2] = test system: HD dermal lesions; experiment: Wound healing in sulphur mustard (HD) model on weanling pigs
[3] = test system: diabetes mice db/db; experiment: Blood glucose in diabetes mice db/db; conditions: within 2 h of administration; SNSA 24 mg/kg body weight
[4] = test system: ERK1 and ERK2; experiment: ERK phosphorylation in THP1 cells
[5] = test system: Na,K-ATPase, H/K-ATPase, Ca-ATPase and other P-type ATPase enzymes; conditions: prior art; cited from earlier work
[6] = molecular target: rabbit medulla Na,K-ATPase (Oryctolagus cuniculus, UniProt Q9N0Z6); experiment: Inhibition of rabbit medulla Na,K-ATPase, coupled pyruvate kinase/lactate dehydrogenase assay
[7] = cited from earlier work
[8] = same enzyme, cardiac glycosides

Compound: C/C=C(/C)C(=O)O[C@H]1C(C)=C2[C@H]([C@@H]1OC(=O)CCCCCCC)[C@@](C)(OC(C)=O)C[C@H](OC(=O)CCC)[C@@]1(O)[C@H]2OC(=O)[C@@]1(C)O
- SERCA inhibition potency range of previous art inhibitors [1]: sub-nano-molar range

Compound: NCc1ccc(S(N)(=O)=O)cc1
- Disrupted TEWL ([2]; Mafenide (50 mg)): day 4
- Re-epitelization, mean value of three blisters ([2]; Mafenide (50 mg)): 38.0 days
- Recovered TE barrier, mean value of three blisters ([2]; Mafenide (50 mg)): 44.3 days
- Blister formation ([2]; Mafenide (50 mg) in buffer, 3-time daily): 3 h

Compound: CC(C)(C)c1cc(O)c(C(C)(C)C)cc1O
- SERCA inhibition potency range of previous art inhibitors [1]: micromolar (μM) range

Compound: bis-L-Glutamyl Vanadate
- lowering of blood glucose level [3]: 52.5%

Compound: COc1cc(/C=C/C(=O)CC(=O)/C=C/c2ccc(O)c(OC)c2)ccc1O
- SERCA inhibition potency range of previous art inhibitors [1]: micromolar (μM) range

Compound: sodium vanadate
- effect of treatment with H2O2 (peroxydation) on activation of ERK1 and ERK2 [4]: increases strongly

Compound: CC(=O)C1=C(O)[C@@H]2[C@H]3c4c[nH]c5cccc(c45)C[C@H]3C(C)(C)N2C1=O
- SERCA inhibition potency range of previous art inhibitors [1]: micromolar (μM) range

Compound: decavanadates [V10O28]^6−
- IC50 (half-inhibitory concentration) range [5]: micro- and sub-micro-molar range

Compound: C[C@@H]1O[C@@H](O[C@H]2CC[C@]3(C=O)[C@H]4CC[C@]5(C)[C@@H](c6ccc(=O)oc6)CC[C@]5(O)[C@@H]4CC[C@]3(O)C2)[C@H](O)[C@H](O)[C@H]1O[C@@H]1O[C@H](CO)[C@@H](O)[C@H](O)[C@H]1O
- IC50 [6, 8]: 1 µM

Compound: C[C@H]1O[C@@H](O[C@H]2[C@@H](O)C[C@H](O[C@H]3[C@@H](O)C[C@H](O[C@H]4CC[C@@]5(C)[C@H](CC[C@@H]6[C@@H]5C[C@@H](O)[C@]5(C)[C@@H](C7=CC(=O)OC7)CC[C@]65O)C4)O[C@@H]3C)O[C@@H]2C)C[C@H](O)[C@@H]1O
- well tolerated daily administration ([7]; daily): 4-5 mg/patient
- LD50 ([7]; in vivo): 0.1 mg/kg body weight
- dose that may cause fatal toxicity ([7]; in vivo): 8-10 mg/patient/day

Compound: meta-vanadate (VO3)n^−
- IC50 (half-inhibitory concentration) range [5]: micro- and sub-micro-molar range

Compound: C[C@@H]1O[C@@H](O[C@H]2C[C@@H](O)[C@]3(CO)[C@H]4[C@H](O)C[C@]5(C)[C@@H](C6=CC(=O)OC6)CC[C@]5(O)[C@@H]4CC[C@]3(O)C2)[C@H](O)[C@H](O)[C@H]1O
- IC50 ([6]; read-out: mean IC50, standard freshly prepared for each measurement set): 1.23 µM
- IC50 ([6]; read-out: mean IC50 in molar units, corresponding to 0.72 μg/ml): 1 µM
- IC50 [6, 8]: 1 µM

Compound: Rosglitazone
- lowering of blood glucose level [3]: 22%
